## Ab-91 heavy chain CDR variants: yeast mating affinities

Antigen: PDVDLGDISGINAS, a 14-residue peptide of the SARS-CoV-2 spike HR2 region.

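The parent was found by panning a naive human phage display library on the peptide. In library AAYL51, one, two or three CDR residues were substituted; doubles and triples were drawn at random. The scFvs were displayed on barcoded MATa yeast, the peptide on MATalpha yeast. Binding brings cells together so that they mate, and sequencing counts the barcode pairs among the diploids. Each replicate has its own calibration line, from reference interactions of the BCL2 family. The assay was run in three technical replicates.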

The variants keep the light chain, the linker and the frameworks of Ab-91 (scFv order VL, a 15-residue (Gly4Ser)3 linker, VH).
VL: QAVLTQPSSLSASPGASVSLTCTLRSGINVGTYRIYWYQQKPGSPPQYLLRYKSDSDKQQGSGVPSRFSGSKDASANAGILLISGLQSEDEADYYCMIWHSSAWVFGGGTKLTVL
VH: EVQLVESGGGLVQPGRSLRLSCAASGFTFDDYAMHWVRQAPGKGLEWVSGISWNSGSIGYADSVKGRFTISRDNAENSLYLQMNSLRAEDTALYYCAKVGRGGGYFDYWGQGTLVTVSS

Positions count from residue 1 of the parent VH; I51Q puts Q in place of I.
All variants listed here change G59 of the VH, counted from its first residue.
Values are log10 of the apparent Kd in nM; lower means stronger binding.
A mean of the replicates is given; it leaves out those without a signal.
A pair that was not seen in any replicate is written "no signal"; this usually means weak binding, but a binder can also be missed.
Empty control strains, which show no peptide, gave a signal in 21% of pairings with library AAYL51; the median was 4.54 and 95% of these signals were weaker than 3.26. No background was subtracted.
For reference, the parent read 1.86 as the reference entry and 0.88 as a member of this library.

The variant I51Q+G59F+G100R showed 4.94 (2 of 3 replicates).
The variant I51D+G59I+V99C showed no signal (0 of 3 replicates).
The variant F27D+I51W+G59P showed 5.67 (2 of 3 replicates).
The variant S55P+G59T showed 4.58 (3 of 3 replicates).
The variant A33F+G59A+F106I showed 5.46 (2 of 3 replicates).
The variant G50R+G59T+G103T showed 5.67 (2 of 3 replicates).
The variant I51E+I58C+G59N showed 6.15 (1 of 3 replicates).
The variant F27Y+G59C+Y105S showed 4.26 (1 of 3 replicates).
The variant M34D+N54Y+G59I showed 5.24 (2 of 3 replicates).
The variant G56M+G59C+R101D showed 4.79 (1 of 3 replicates).
The variant G56C+G59Y+S63K showed no signal (0 of 3 replicates).
The variant G59H+V64C+G102K showed 5.22 (2 of 3 replicates).
The variant G26R+G59D+Y108C showed 4.12 (1 of 3 replicates).
The variant M34L+G59T+A61V showed 4.82 (2 of 3 replicates).
The variant G59C+F106P showed 3.91 (1 of 3 replicates).
The variant H35W+G50A+G59P showed 3.93 (1 of 3 replicates).
The variant G59T+G100C showed 5.02 (2 of 3 replicates).
The variant G59H+A61F+K65R showed 5.32 (2 of 3 replicates).
The variant G59T+K65T+Y108S showed 4.74 (2 of 3 replicates).
The variant G59E+G103R+G104H showed 2.50 (2 of 3 replicates).
The variant A33K+N54K+G59V showed no signal (0 of 3 replicates).
The variant D31F+G59S+A61K showed 4.64 (2 of 3 replicates).
The variant D30N+H35A+G59R showed no signal (0 of 3 replicates).
The variant Y32A+H35I+G59M showed 3.59 (1 of 3 replicates).
The variant I51T+G56A+G59R showed no signal (0 of 3 replicates).
The variant S52L+G59A+Y60C showed 5.08 (2 of 3 replicates).
The variant D31K+G59N+G100Q showed 4.71 (2 of 3 replicates).
The variant F27C+S55R+G59C showed 4.22 (2 of 3 replicates).
The variant I58A+G59Y+G103H showed no signal (0 of 3 replicates).
The variant G59Q showed no signal (0 of 3 replicates).
The variant H35W+G59F+F106C showed 5.87 (1 of 3 replicates).
The variant M34P+W53Y+G59S showed no signal (0 of 3 replicates).
The variant N54G+I58G+G59K showed 3.28 (1 of 3 replicates).
The variant S52P+S57K+G59A showed 5.11 (2 of 3 replicates).
The variant G59Q+V99M showed no signal (0 of 3 replicates).
The variant Y32N+G59T+G102I showed no signal (0 of 3 replicates).
The variant S57G+G59Y+G104E showed no signal (0 of 3 replicates).
The variant G59L+Y60T showed 4.31 (1 of 3 replicates).
The variant G59M+D62P+G100A showed 4.84 (1 of 3 replicates).
The variant G59A+V64L+D107A showed no signal (0 of 3 replicates).
The variant D30T+G59M+G104L showed no signal (0 of 3 replicates).
The variant F29Q+G59V+F106H showed 6.01 (2 of 3 replicates).
The variant F29E+G59P+K65N showed no signal (0 of 3 replicates).
The variant G50E+N54W+G59W showed 3.42 (1 of 3 replicates).

Excerpt, the first 6 entries:

changes,mean log10 Kd (nM),detected
I51Q+G59F+G100R,4.94,2/3
I51D+G59I+V99C,no signal,0/3
F27D+I51W+G59P,5.67,2/3
S55P+G59T,4.58,3/3
A33F+G59A+F106I,5.46,2/3
G50R+G59T+G103T,5.67,2/3

Values reported by Engelhart et al. 2022, doi:10.1038/s41597-022-01779-4 (FLAb copy).